Results on 33 molecules are retold here after US9694016B2 (Novartis AG, priority 2013, dated 2017).

By UniProt entry, the sequences of proteins in these tests, tags left out.
UniProt P04049, whole entry Y340E/Y341E: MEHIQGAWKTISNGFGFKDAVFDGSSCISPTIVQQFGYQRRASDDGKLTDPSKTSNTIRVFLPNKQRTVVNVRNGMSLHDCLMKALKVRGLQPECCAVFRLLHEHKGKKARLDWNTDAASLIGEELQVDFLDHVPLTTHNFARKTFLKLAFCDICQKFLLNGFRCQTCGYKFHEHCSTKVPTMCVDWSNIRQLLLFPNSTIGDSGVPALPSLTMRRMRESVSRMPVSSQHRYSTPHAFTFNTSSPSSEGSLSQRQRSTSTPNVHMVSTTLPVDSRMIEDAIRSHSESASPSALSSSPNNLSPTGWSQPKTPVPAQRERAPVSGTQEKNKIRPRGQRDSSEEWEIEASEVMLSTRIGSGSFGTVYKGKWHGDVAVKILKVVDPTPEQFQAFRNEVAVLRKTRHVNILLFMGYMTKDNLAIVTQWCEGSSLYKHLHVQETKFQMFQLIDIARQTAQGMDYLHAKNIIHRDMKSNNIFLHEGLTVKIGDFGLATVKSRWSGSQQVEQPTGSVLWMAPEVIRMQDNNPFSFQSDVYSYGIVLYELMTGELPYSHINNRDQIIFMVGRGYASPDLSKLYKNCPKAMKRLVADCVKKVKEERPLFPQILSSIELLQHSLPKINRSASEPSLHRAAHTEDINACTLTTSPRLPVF

The first test addresses C-Raf FL (full-length C-Raf protein, Y340E and Y341E activating mutations) (Homo sapiens (Human), UniProt P04049, Y340E/Y341E). Format: biochemical. Conditions: AlphaScreen, 60 min pre-incubation, 1 hour reaction; read-out: c-Raf FL IC-50. Background: Bead proximity is the source of the signal in Alpha formats.
For the molecule `CCOc1nc(-c2cc(NC(=O)c3ccnc(C(F)(F)F)c3)ccc2C)cc(N2CCOCC2)n1` [Example 762, N-(3-(2-ethoxy-6-morpholinopyrimidin-4-yl)-4-methylphenyl)-2-(trifluoromethyl)isonicotinamide], the IC50 is 0.2 nM. For the molecule `Cc1ccc(NC(=O)c2ccnc(C(C)(C)C#N)c2)cc1-c1cc(N2CCOCC2)nc(NC[C@@H](C)O)n1` [Example 741, (R)-2-(2-cyanopropan-2-yl)-N-(3-(2-((2-hydroxypropyl)amino)-6-morpholinopyrimidin-4-yl)-4-methylphenyl)isonicotinamide], the IC50 worked out at 1.2 nM. The same measure, in the same setting: the figure for `Cc1ccc(NC(=O)c2ccnc(C3(C#N)CC3)c2)cc1-c1cc(N2CCOCC2)n2nccc2n1` [Example 796, 2-(1-cyanocyclopropyl)-N-(4-methyl-3-(7-morpholinopyrazolo[1,5-a]pyrimidin-5-yl)phenyl)isonicotinamide] is 0.2 nM; for `Cc1ccc(NC(=O)c2cccc(C(F)(F)F)c2)cc1-c1nc2c(c(N3CCOCC3)n1)CNCC2` [Example 835, N-(4-methyl-3-(4-morpholino-5,6,7,8-tetrahydropyrido[4,3-d]pyrimidin-2-yl)phenyl)-3-(trifluoromethyl)benzamide] it is 0.6 nM. On to `Cc1ncc(NC(=O)c2cccc(C(F)(F)F)c2)cc1-c1ccc(S(C)(=O)=O)c(N2CCOCC2)c1` [Example 687, N-(6-methyl-5-(4-(methylsulfonyl)-3-morpholinophenyl)pyridin-3-yl)-3-(trifluoromethyl)benzamide], for which the IC50 came to 0.2 nM. In the case of `CCNc1nc(-c2cc(NC(=O)c3ccnc(C(C)(C)O)c3)cnc2C)cc(N2CCOCC2)n1` [Example 723, N-(5-(2-(ethylamino)-6-morpholinopyrimidin-4-yl)-6-methylpyridin-3-yl)-2-(2-hydroxypropan-2-yl)isonicotinamide], the IC50 was 6.8 nM. As to `Cc1ccc(NC(=O)c2ccnc(C(C)(F)F)c2)cc1-c1cc(N2CCOC[C@@H]2C)c(=O)n(C)n1` [Example 664, (S)-2-(1,1-difluoroethyl)-N-(4-methyl-3-(1-methyl-5-(3-methylmorpholino)-6-oxo-1,6-dihydropyridazin-3-yl)phenyl)isonicotinamide], the IC50 was 0.6 nM. `Cc1ccc(NC(=O)c2cc(C3CC3)nn2C)cc1-c1cc2[nH]cnc2c(N2CCOCC2)n1` [Example 818, 3-cyclopropyl-1-methyl-N-(4-methyl-3-(4-morpholino-1H-imidazo[4,5-c]pyridin-6-yl)phenyl)-1H-pyrazole-5-carboxamide]: the IC50 came out at 1.1 nM. Still for that read-out and setting: in the case of `Cc1ccc(NC(=O)c2ccnc(C(C)(F)F)c2)cc1-c1cc(N2CCOC(C)(C)C2)c(=O)n(C)n1` [Example 667, 2-(1,1-difluoroethyl)-N-(3-(5-(2,2-dimethylmorpholino)-1-methyl-6-oxo-1,6-dihydropyridazin-3-yl)-4-methylphenyl)isonicotinamide] it was 1.1 nM. Regarding `Cc1ncc(NC(=O)c2ccccc2)cc1-c1cc(N2CCOCC2)n(C)c(=O)c1` [Example 503, N-(1′,2-dimethyl-6′-morpholino-2′-oxo-1′,2′-dihydro-[3,4′-bipyridin]-5-yl)benzamide], the IC50 was 62.5 nM.

With `Cc1ccc(NC(=O)c2ccnc(C(C)(F)F)c2)cc1-c1cc(N2CCOCC2)c(=O)n(C)n1` [Example 657, 2-(1,1-difluoroethyl)-N-(4-methyl-3-(1-methyl-5-morpholino-6-oxo-1,6-dihydropyridazin-3-yl)phenyl)isonicotinamide], the IC50 turned out to be 0.3 nM. For `CCNc1nc(-c2cc(NC(=O)c3cccc(C(C)(C)C#N)c3)cnc2C)cc(N2CCOCC2)n1` [Example 726, 3-(2-cyanopropan-2-yl)-N-(5-(2-(ethylamino)-6-morpholinopyrimidin-4-yl)-6-methylpyridin-3-yl)benzamide], the IC50 was determined as 2.2 nM. Consider `Cc1ccc(NC(=O)c2cc(F)cc(N3CCOCC3)c2)cc1-c1cc(N2CCOCC2)n(C)c(=O)c1` [Example 491, 3-fluoro-N-(4-methyl-3-(1-methyl-6-morpholino-2-oxo-1,2-dihydropyridin-4-yl)phenyl)-5-morpholinobenzamide], for which the IC50 turned out to be 0.4 nM. In the case of `Cc1ncc(NC(=O)c2cccc(C(F)(F)F)c2)cc1-c1cc(N2CCOCC2)n2nccc2n1` [Example 793], the IC50 is 0.3 nM.

Turning to `Cc1ccc(NC(=O)c2cccc(C(F)F)c2)cc1-c1cc(N2CCOCC2)c2nccn2n1` [Example 847, 3-(difluoromethyl)-N-(4-methyl-3-(8-morpholinoimidazo[1,2-b]pyridazin-6-yl)phenyl)benzamide], the IC50 came out at 0.04 nM. Consider `Cc1ccc(NC(=O)c2cc(C(F)(F)F)ccn2)cc1-c1cc(N2CCOCC2)c(OCCO)nn1` [Example 586, N-(3-(6-(2-hydroxyethoxy)-5-morpholinopyridazin-3-yl)-4-methylphenyl)-4-(trifluoromethyl)picolinamide], for which the IC50 came out at 0.2 nM.

Staying with this test, now noted: AlphaScreen, 60 min pre-incubation, reaction 1 hour at room temperature; read-out: c-Raf FL IC-50.
As to `Cc1ccc(NC(=O)c2ccnc(C(C)(F)F)c2)cc1-c1cnc(OC(C)C)c(N2CCOCC2)c1` [Example 945, 2-(1,1-difluoroethyl)-N-(3-(6-isopropoxy-5-morpholinopyridin-3-yl)-4-methylphenyl)isonicotinamide], the IC50 was found to be 0.53 nM. As for `Cc1ccc(NC(=O)c2cnnc(C(F)(F)F)c2)cc1-c1cc(N2CCOCC2)nc(N2CC(O)C2)c1` [Example 1070, N-(3-(2-(3-hydroxyazetidin-1-yl)-6-morpholinopyridin-4-yl)-4-methylphenyl)-6-(trifluoromethyl)pyridazine-4-carboxamide], the IC50 is 0.73 nM.

`Cc1ncc(NC(=O)c2cc(CN(C)C)cc(C(F)(F)F)c2)cc1-c1cc(N2CCOCC2)nc(N2CC(O)C2)c1` [Example 1085, 3-((dimethylamino)methyl)-N-(2′-(3-hydroxyazetidin-1-yl)-2-methyl-6′-morpholino-[3,4′-bipyridin]-5-yl)-5-(trifluoromethyl)benzamide]: the IC50 came out at 27.6 nM. Same read-out and setting: in the case of `Cc1ncc(NC(=O)c2ccnc(C(C)(C)F)c2)cc1-c1cnc(OC2CC3(COC3)C2)c(N2CCOCC2)c1` [Example 963, N-(6′-(2-oxaspiro[3.3]heptan-6-yloxy)-2-methyl-5′-morpholino-[3,3′-bipyridin]-5-yl)-2-(2-fluoropropan-2-yl)isonicotinamide] it was 1.04 nM; in that of `COc1ncc(-c2cc(NC(=O)c3cccc(C(F)(F)F)c3)nnc2C)cc1N1CCOCC1` [Example 934, N-(5-(6-methoxy-5-morpholinopyridin-3-yl)-6-methylpyridazin-3-yl)-3-(trifluoromethyl)benzamide], 1.2 nM; in that of `Cc1ncc(NC(=O)c2ccnc(C(F)(F)F)c2)cc1-c1cc(N2CCOCC2)nc(N2CC(C)(O)C2)c1` [Example 1104, N-(2′-(3-hydroxy-3-methylazetidin-1-yl)-2-methyl-6′-morpholino-[3,4′-bipyridin]-5-yl)-2-(trifluoromethyl)isonicotinamide], 1.43 nM.

As for `Cc1ncc(NC(=O)c2ccc(C#N)c(C(F)(F)F)c2)cc1-c1cc(N2CCOCC2)c2nccn2c1` [Example 877, 4-cyano-N-(6-methyl-5-(8-morpholinoimidazo[1,2-a]pyridin-6-yl)pyridin-3-yl)-3-(trifluoromethyl)benzamide], the IC50 was found to be 1.4 nM. For the molecule `Cc1ccc(NC(=O)c2ccnc(C(C)C)c2)cc1-c1cc(N2CCOCC2)nc(N2CCOCC2)c1` [Example 1117, N-(3-(2,6-dimorpholinopyridin-4-yl)-4-methylphenyl)-2-isopropylisonicotinamide], the IC50 turned out to be 0.3 nM. For `Cc1ccc(NC(=O)c2cnnc(C(F)(F)F)c2)cc1-c1cc(N2CCOCC2)c2nccn2c1` [Example 852], the IC50 is 0.2 nM.

Still in this test, the particulars now being: Table 2; AlphaScreen, 1 hour reaction; read-out: c-Raf FL IC-50.
With `Cc1ccc(NC(=O)c2cccc(C(F)(F)F)c2)cc1-c1cc(N2CCOCC2)c(=O)n([C@H](C)C#N)c1` [Example 148, (R)—N-(3-(1-(1-cyanoethyl)-5-morpholino-6-oxo-1,6-dihydropyridin-3-yl)-4-methylphenyl)-3-(trifluoromethyl)benzamide], the IC50 was 0.3 nM. As for `Cc1ccc(NC(=O)c2cc(C(C)C)on2)cc1-c1cc(N2CCOCC2)c(=O)n(C)c1` [Example 371, 5-isopropyl-N-(4-methyl-3-(1-methyl-5-morpholino-6-oxo-1,6-dihydropyridin-3-yl)phenyl)isoxazole-3-carboxamide], the IC50 was 0.2 nM. As for `COc1ncc(-c2cc(NC(=O)c3ccnc(C(F)(F)F)c3)cnc2C)cc1N1CCOCC1` [Example 324, N-(6′-methoxy-2-methyl-5′-morpholino-[3,3′-bipyridin]-5-yl)-2-(trifluoromethyl)isonicotinamide], the IC50 amounted to 1.4 nM. With `Cc1ncc(NC(=O)c2cccc(C(F)F)c2)cc1-c1ccnc(N2CCOCC2)c1` [Example 99, 3-(difluoromethyl)-N-(2-methyl-2′-morpholino-[3,4′-bipyridin]-5-yl)benzamide], the IC50 was determined as 0.2 nM. The same measure, in the same setting: in the case of `Cc1ccc(NC(=O)c2cccc(C(F)(F)F)c2)cc1-c1cc(N2CCOCC2)nc(-n2ccnc2)n1` [Example 33, N-(3-(2-(1H-imidazol-1-yl)-6-morpholinopyrimidin-4-yl)-4-methylphenyl)-3-(trifluoromethyl)benzamide] it was 0.1 nM; in that of `Cc1ncc(NC(=O)c2cccc(C(F)(F)F)c2)cc1-c1cnnc(N2CCOCC2)c1` [Example 58, N-(6-methyl-5-(6-morpholinopyridazin-4-yl)pyridin-3-yl)-3-(trifluoromethyl)benzamide], 1.1 nM; in that of `Cc1ncc(NC(=O)c2cccc(C(F)(F)F)c2)cc1-c1cnc(CS(C)(=O)=O)c(N2CCOCC2)c1` [Example 327, N-(2-methyl-6′-((methylsulfonyl)methyl)-5′-morpholino-[3,3′-bipyridin]-5-yl)-3-(trifluoromethyl)benzamide], 1 nM. With `COc1ncc(-c2cc(NC(=O)c3ccnc(C(C)(C)C#N)c3)cnc2Cl)cc1N1CCOCC1` [Example 264, N-(2-chloro-6′-methoxy-5′-morpholino-[3,3′-bipyridin]-5-yl)-2-(2-cyanopropan-2-yl)isonicotinamide], the IC50 was 2.4 nM.
